{"sequences": {"note": "Amino acid sequences for entries named in this document (tags omitted).", "UniProt P00352, whole entry": "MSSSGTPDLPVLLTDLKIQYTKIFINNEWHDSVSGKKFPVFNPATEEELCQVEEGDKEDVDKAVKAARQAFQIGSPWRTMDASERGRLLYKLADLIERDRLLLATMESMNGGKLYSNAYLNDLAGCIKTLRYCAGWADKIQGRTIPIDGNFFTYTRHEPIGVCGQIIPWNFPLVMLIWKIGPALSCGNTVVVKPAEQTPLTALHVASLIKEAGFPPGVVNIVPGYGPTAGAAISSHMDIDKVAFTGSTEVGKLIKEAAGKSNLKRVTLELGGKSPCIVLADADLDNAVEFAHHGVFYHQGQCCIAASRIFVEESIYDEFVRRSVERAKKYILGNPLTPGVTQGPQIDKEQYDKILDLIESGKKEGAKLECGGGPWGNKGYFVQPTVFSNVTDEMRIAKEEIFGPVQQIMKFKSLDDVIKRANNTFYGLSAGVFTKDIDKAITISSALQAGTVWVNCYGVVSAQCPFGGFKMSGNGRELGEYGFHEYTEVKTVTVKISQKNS"}, "source": "PubChem BioAssay AID1030", "about": "(National Center for Advancing Translational Sciences (NCATS), 2008)", "note": "The entries are a selection whose mix differs from that of the whole data set. Records with an inconclusive call do not appear. Entries that show only a call come without a potency. Some structures show a salt or complex split into parts, the way the source records it. Active and inactive are the calls of the source. The call rests on the fitted dose curve; in most records, active means well fitted inhibition curve with a large enough effect (not every such curve was filed as active); inconclusive means small, poorly fitted or top-dose-only effect, or another doubt; inactive means no such curve, though single readings can be large or run the other way. Potency means the concentration at half of the fitted maximal effect.", "data": [{"molecular_target": "Aldehyde dehydrogenase 1A1 (Homo sapiens) (UniProt P00352)", "assay": "qHTS Assay for Inhibitors of Aldehyde Dehydrogenase 1 (ALDH1A1)", "conditions": "Purified ALDH1A1, NADH fluorescence, propionaldehyde substrate; series mostly up to 75.3 µM", "values": [{"compound": "CCN(CCCl)Cc1ccccc1C", "Potency": "inactive"}, {"compound": "CN(C)CCOC(=O)C(O)(c1ccccc1)C1CCCCC1", "note": "(centres undefined)", "Potency": "inactive"}, {"compound": "CCN(CC)CCCOC(=O)C(O)(c1ccccc1)C1CCCCC1", "note": "(centres undefined)", "Potency": "inactive"}, {"compound": "O=C(OCCN1CCN(CCOCc2ccccc2)CC1)C(O)(c1ccccc1)c1ccccc1", "Potency": "inactive"}, {"compound": "CN(C)CCOC(=O)C(O)(c1ccccc1)C1CCCC1", "note": "(centres undefined)", "Potency": "inactive"}, {"compound": "CCN(CC)CC(O)COC(=O)C(O)(c1ccccc1)C1CCCCC1", "note": "(centres undefined)", "Potency": "inactive"}, {"compound": "[Au].[Au].c1ccc([PH+](c2ccccc2)c2ccccc2)cc1.c1ccc([PH+](c2ccccc2)c2ccccc2)cc1.n1n[nH]c(-c2nnn[nH]2)n1", "Potency": "active: 1.78 µM"}, {"compound": "CCN(CC)CCCOC(=O)C(O)(c1ccccc1)c1ccccc1", "Potency": "inactive"}, {"compound": "O=[N+]([O-])OCC(CO[N+](=O)[O-])(CO[N+](=O)[O-])CO[N+](=O)[O-]", "Potency": "active: 1.58 µM"}]}]}
